This passage reports inhibition results from ChEMBL document CHEMBL5518203, “Rational Design of Benzobisheterocycle Metallo-β-Lactamase Inhibitors: A Tricyclic Scaffold Enhances Potency against Target Enzymes” (J Med Chem, 2024).

Amino acid sequences for entries named in this document (tags omitted). A change or cut given only in a name is not applied to a line headed by its entry.
UniProt C7C422: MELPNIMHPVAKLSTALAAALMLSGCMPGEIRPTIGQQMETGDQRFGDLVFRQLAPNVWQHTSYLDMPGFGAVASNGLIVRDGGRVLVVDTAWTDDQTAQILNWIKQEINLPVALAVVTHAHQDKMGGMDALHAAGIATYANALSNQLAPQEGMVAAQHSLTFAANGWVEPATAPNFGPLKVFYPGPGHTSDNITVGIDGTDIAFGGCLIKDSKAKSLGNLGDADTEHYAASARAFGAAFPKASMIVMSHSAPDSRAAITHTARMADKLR

Molecules are shown by their SMILES. The source made the active and inactive calls. The calls are words filed in the database; no cut-off is given here.

This assay has as its target Metallo-beta-lactamase type 2 (Bacteria) (UniProt C7C422). Kind of assay: Inhibition of full length NDM-1 (unknown origin) expressed in Escherichia DH5alpha at 100 microg/ml measured at 1 to 5 hrs. To be noted: dose 100.0 µg/ml, time 1-5 hrs.

On to `SC[C@H]1SC[C@@H]2Nc3ccccc3N21` (relative stereo), for which the inhibition result is “Active”.
